Test [1] has as its target human IgE (human). Kind of test: SPR Biacore T200, 37 C, hIgE on chip, antibody analyte; pH 7.4, […] Ca. A general note: SPR reads the build-up and loss of mass on a sensor chip optically.
The target in test [2] is human IgE (human). In words: SPR Biacore T200, 37 C, hIgE on chip, antibody analyte; pH 5.8, 3 µM Ca.
The target in test [3] is human IgE (human). In words: SPR Biacore T200, 37 C, hIgE on chip, antibody analyte; pH 5.8, […] Ca.

Chains of the proteins cited; added tags and fusions are not shown. A line that says so, or that is headed by a name, gives the form on record, which may keep a tag or linker.
human IgE (human), heavy, as listed by the source, chain 1 of 2: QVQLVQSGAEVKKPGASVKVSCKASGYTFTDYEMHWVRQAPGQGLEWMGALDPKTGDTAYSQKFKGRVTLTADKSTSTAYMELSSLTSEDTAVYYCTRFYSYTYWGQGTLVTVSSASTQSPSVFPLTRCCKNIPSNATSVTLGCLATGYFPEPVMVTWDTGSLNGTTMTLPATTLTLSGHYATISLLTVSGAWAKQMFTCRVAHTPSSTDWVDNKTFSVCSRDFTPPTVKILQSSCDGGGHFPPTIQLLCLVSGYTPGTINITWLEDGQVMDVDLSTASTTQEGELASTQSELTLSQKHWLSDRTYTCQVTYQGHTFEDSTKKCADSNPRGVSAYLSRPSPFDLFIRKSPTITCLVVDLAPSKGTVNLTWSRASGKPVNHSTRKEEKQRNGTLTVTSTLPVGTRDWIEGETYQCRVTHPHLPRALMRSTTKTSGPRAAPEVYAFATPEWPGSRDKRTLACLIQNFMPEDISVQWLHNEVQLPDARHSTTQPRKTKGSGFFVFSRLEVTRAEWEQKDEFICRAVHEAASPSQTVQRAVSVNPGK

Consider one substance from patent US20220411483A1.

Regarding “Xolair (omalizumab, Novartis) (antibody)”, the figures for the Kd in test [1], in test [2] and in test [3] were 4.4 nM, 13 nM and 9.9 nM, respectively.

The term Kd denotes a measure of binding affinity in units of concentration. Low values mean tighter binding, high ones weaker binding.
